One assay concerns the target T1, BRD4 (Homo sapiens, UniProt O60885).
T1 construct: endogenous in cells; host or cells: HeLa
Kind of assay: BET protein abundance in HeLa cells by Western blot. Format: cell-based. The method, then:
4 h after treatment the media was aspirated and replaced by fresh media without treatment. Cells were harvested at given time points.

Another assay addresses BRD3/BD2 (Homo sapiens, UniProt Q15059). To be noted: ITC, 30° C. The method, then:
(§1) Samples were monitored by SDS-polyacrylamide gel electrophoresis to verify purity.
(§2) Experiments were conducted as PROTAC into protein titrations, except in the case of MZ3 where protein was titrated into PROTAC. BET protein experiments were conducted in a buffer containing 20 mM HEPES with 100 mM NaCl at pH 7.5 and a temperature of 30° C.
For orientation: Isothermal titration calorimetry measures the heat released or taken up as one component is titrated into another.

A further assay has as its target BRD2/BD2 (Homo sapiens, UniProt P25440). To be noted: ITC, 30° C. The method, then:
as §1, §2

Another assay has as its target BRD4/BD2 (Homo sapiens, UniProt O60885). To be noted: ITC, 30° C. The method, then: as §1, §2
The next assay has as its target BRD4/BD1 (Homo sapiens, UniProt O60885). The note with it: ITC, 30° C. The method, then:
as §1, §2

The next assay addresses BRD3/BD1 (Homo sapiens, UniProt Q15059). To be noted: ITC, 30° C. The method, then:
as §1, §2

The target of the next assay is BRD2/BD1 (Homo sapiens, UniProt P25440). The note with it: ITC, 30° C. The method, then: as §1, §2
Assay [1] concerns BET proteins (BRD2, BRD3, BRD4). Kind of assay: BET protein removal in HeLa cells by Western blot (all BET proteins). The note with it: various concentrations. (In general: A western blot detects proteins with antibodies after separation by electrophoresis.)
The subject of assay [2] is T2, individual first and second bromodomains of BRD2, BRD3 and BRD4.
T2 construct: rows headed: ΔH; other: ITC, range over first and second bromodomains of BRD2, BRD3 and BRD4; fused on or other part: His6 tag
Kind of assay: ITC of MZ1, summary over all six bromodomains. Format: binding. The note with it: range over first and second bromodomains of BRD2, BRD3 and BRD4. The method, then: as §2

The next assay deals with T3, BRD2 (Homo sapiens, UniProt P25440).
T3 construct: endogenous in cells; host or cells: HeLa
Kind of assay: BET protein abundance in HeLa cells by Western blot. Format: cell-based. To be noted: 1 μM, 24 h.

The next assay concerns the target T4, BRD3 (Homo sapiens, UniProt Q15059).
T4 construct: endogenous in cells; host or cells: HeLa
The description is as above. Type of assay: cell-based. To be noted: 1 μM, 24 h.

For another assay, the target named is GFP-BRD4 (Homo sapiens, UniProt O60885). The note with it: U2OS cells expressing GFP-BRD4, 5 μM.
Another assay has as its target BET bromodomains. The note with it: background statement on known BET inhibitors; cited from earlier work.

Take `Cc1ncsc1-c1ccc(CNC(=O)[C@@H]2C[C@@H](O)CN2C(=O)[C@@H](NC(=O)COCCOCCOCCNC(=O)C[C@@H]2N=C(c3ccc(Cl)cc3)c3c(sc(C)c3C)-n3c(C)nnc32)C(C)(C)C)cc1` [MZ1, (2S,4R)-1-((S)-2-(tert-butyl)-17-((S)-4-(4-chlorophenyl)-2,3,9-trimethyl-6H-thieno[3,2-f][1,2,4]triazolo[4,3-a][1,4]diazepin-6-yl)-4,16-dioxo-6,9,12-trioxa-3,15-diazaheptadecanoyl)-4-hydroxy-N-(4-(4-methylthiazol-5-yl)benzyl)pyrrolidine-2-carboxamide]: on BRD4 (1 μM for 4 h, then compound removed from the media), the “detectable recovery of intracellular BRD4 after washout” value was 20 h. Further, the “removal of BRD4 (Western blot)” value on BRD4 (1 μM, 24 h) is given as “complete removal”. The “BRD4 protein level in the absence of the wash step” value on BRD4 (1 μM, no exchange of media, after 48 h) is reported as “no protein could be detected”. The ΔG is -9.63 ± 0.06 kcal/mol at BRD3/BD2; -9.22 ± 0.05 kcal/mol at BRD2/BD2; -9.61 ± 0.04 kcal/mol on BRD4/BD2; -8.91 ± 0.02 kcal/mol on BRD4/BD1; -9.62 ± 0.02 kcal/mol on BRD3/BD1. The ΔH on BRD3/BD2 is -8.32 ± 0.05 kcal/mol; at BRD2/BD2, -6.08 ± 0.04 kcal/mol; on BRD4/BD2, -6.86 ± 0.03 kcal/mol; on BRD4/BD1, -8.59 ± 0.03 kcal/mol; at BRD3/BD1, -10.0 ± 0.06 kcal/mol; at BRD2/BD1 it was -10.0 ± 0.1 kcal/mol. Further, the ΔH in [2] was −6.1 to −10.0 kcal/mol. In addition, the ΔS is reported as −4.29 ± 0.26 cal/mol-K on BRD3/BD2; 10.3 ± 0.2 cal/mol-K at BRD2/BD2; 9.04 ± 0.16 cal/mol-K at BRD4/BD2; 1.04 ± 0.13 cal/mol-K on BRD4/BD1; −4.40 ± 0.20 cal/mol-K at BRD3/BD1; −4.29 ± 0.38 cal/mol-K at BRD2/BD1. Also, the “concentration dependent BET removal activity” value in assay [1] was “most active compound”. Besides, the “removal of BRD2 (Western blot)” value at BRD2 was “not complete”. In addition, the “removal of BRD3 (Western blot)” value on BRD3 is “not complete”. The “complete depletion of the GFP-BRD4 fluorescence signal observed after” value at GFP-BRD4 stood at 3 h.
As for `Cc1ncsc1-c1ccc(CNC(=O)[C@@H]2C[C@H](O)CN2C(=O)[C@@H](NC(=O)COCCOCCOCCNC(=O)C[C@@H]2N=C(c3ccc(Cl)cc3)c3c(sc(C)c3C)-n3c(C)nnc32)C(C)(C)C)cc1` [cisMZ1, (2S,4S)-1-((S)-2-(tert-butyl)-17-((S)-4-(4-chlorophenyl)-2,3,9-trimethyl-6H-thieno[3,2-f][1,2,4]triazolo[4,3-a][1,4]diazepin-6-yl)-4,16-dioxo-6,9,12-trioxa-3,15-diazaheptadecanoyl)-4-hydroxy-N-(4-(4-methylthiazol-5-yl)benzyl)pyrrolidine-2-carboxamide], the “change in the GFP-BRD4 fluorescence signal over the course of the experiment” value at GFP-BRD4 was “no change”.
`CCNC(=O)C[C@@H]1N=C(c2ccc(Cl)cc2)c2cc(OC)ccc2-n2c(C)nnc21` [I-BET762]: at BET bromodomains, the Kd (in general, the equilibrium constant for the complex coming apart) was ~100 nM.

The values are drawn from patent US11179373B2, “Derivatives of 1-[(cyclopentyl or 2-pyrrolidinyl)carbonylaminomethyl]-4-(l,3-thiazol-5-yl) benzene which are useful for the treatment of proliferative, autoimmune or inflammatory diseases” (University of Dundee, priority 2015, dated 2021).
